Measurements reported in US20080070971A1, “Medical Use of Bilirubin and its Structural Analogues” (priority 2006, published 2008).

By UniProt entry, the sequences of proteins in these tests, tags left out. Residues count along the entry.
UniProt P22309, 26-533 limits assumed: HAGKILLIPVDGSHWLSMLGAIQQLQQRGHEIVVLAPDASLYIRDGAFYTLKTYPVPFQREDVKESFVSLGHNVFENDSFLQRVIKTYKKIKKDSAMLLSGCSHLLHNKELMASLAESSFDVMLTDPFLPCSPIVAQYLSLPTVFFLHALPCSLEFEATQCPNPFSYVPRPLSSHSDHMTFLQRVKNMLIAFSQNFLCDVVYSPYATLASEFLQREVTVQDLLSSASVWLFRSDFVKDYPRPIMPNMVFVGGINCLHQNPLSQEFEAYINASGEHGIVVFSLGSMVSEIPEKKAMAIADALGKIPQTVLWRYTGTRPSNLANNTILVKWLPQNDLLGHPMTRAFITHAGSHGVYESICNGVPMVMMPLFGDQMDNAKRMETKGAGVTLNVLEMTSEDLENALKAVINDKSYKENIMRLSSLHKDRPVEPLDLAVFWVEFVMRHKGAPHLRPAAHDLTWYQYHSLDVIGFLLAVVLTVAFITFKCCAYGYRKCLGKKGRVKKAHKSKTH

Target: UDPGT1A1 (Homo sapiens, UniProt P22309)
Test: Inhibition of bilirubin glucuronidation by UDPGT
Assay type: biochemical
Conditions: read-out: Apparent Ki; Table 4; bilirubin 0.1 mM as substrate
From the text: UDP-glucuronosyltransferase 1A1 isozenzyme (Cat. #U7254), uridine-5′-diphosphoglucuronic acid (UDPGA, #U5625), bilirubin (B), naringenin (N5893), octyl gallate (#48700) and quercetin (Q0125) were purchased from SigmaAldrich (St. Louis, Mo.). Bilirubin dimethyl ester (#B612-9), biliverdin dimethyl ester (#B610-9), biliverdin hydrocholoride (#B655-9), mesobilirubin (#M588-9), urobilin hydrochloride (#U590-1), and stercobilin hydrochloride (#S594-9) were purchased from Frontier Scientific Inc. (Logan, Utah).
The enzyme activity assay method was based on those of Adlard and Lathe (Biochem. J., 1970, 119:437-445). Incubation mixtures (total vol. 1.25 ml, pH 7.9) were prepared in tubes kept in ice and had the following composition: bilirubin (0.1 mM), UDP-glucuronic acid (0.25 mM), serum (5.8%, v/v), Mg2+ (5.0 mM), microsomal preparation (0.5-1.5 mg of protein), 10 mM tris-0.14 M KCl (pH 8.0), and 10% (v/v) dimethylsulphoxide. Incubation (10 min, 37° C.) was carried out with shaking (100 cycles/min). After incubation, tubes were placed in ice-water (5 min) and direct-reacting bilirubin was determined. All incubations were done in duplicate. Enzyme activity was expressed as μg of bilirubin conjugated/h per mg of protein. Differences from controls of more than 10% were regarded as significant.

`O=c1c(O)c(-c2ccc(O)c(O)c2)oc2cc(O)cc(O)c12` showed a pKi of 5.35.

pKi: −log10 of the molar value.
